Experimental data from patent US20250195530A1, “POLQ INHIBITORS” (ASTRAZENECA AB, priority 2022, published 2025).

Protein sequences, listed by entry. Tags and fused reporters are not part of them. Residues count along the entry.
UniProt O75417, 1780-2590: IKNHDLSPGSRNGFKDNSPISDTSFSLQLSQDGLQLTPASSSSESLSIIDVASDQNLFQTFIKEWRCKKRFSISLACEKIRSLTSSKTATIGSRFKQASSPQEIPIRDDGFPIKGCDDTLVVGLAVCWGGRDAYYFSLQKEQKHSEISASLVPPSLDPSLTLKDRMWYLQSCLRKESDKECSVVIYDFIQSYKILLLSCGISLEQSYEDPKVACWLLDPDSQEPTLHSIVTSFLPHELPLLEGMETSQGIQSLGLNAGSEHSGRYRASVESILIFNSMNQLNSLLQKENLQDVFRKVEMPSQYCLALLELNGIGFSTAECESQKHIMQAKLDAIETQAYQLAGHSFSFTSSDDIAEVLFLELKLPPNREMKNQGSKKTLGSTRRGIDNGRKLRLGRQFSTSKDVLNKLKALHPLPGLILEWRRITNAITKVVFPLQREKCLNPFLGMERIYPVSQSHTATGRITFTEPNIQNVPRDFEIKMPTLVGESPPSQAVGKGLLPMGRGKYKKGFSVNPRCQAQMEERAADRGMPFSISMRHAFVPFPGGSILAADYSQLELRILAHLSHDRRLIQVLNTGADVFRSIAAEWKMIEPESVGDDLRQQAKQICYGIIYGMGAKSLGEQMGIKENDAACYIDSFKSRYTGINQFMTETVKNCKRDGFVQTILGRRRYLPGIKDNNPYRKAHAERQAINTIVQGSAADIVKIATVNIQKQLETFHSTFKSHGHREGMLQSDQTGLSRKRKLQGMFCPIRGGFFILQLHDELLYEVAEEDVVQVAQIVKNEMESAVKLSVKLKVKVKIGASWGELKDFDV

Molecular target: isolated polymerase domain (I1780-V2590) of DNA polymerase theta (Polθ) (Homo sapiens (Human), UniProt O75417)
Experiment: biochemical

Structure (SMILES)	IC50
CC(CCCOc1cccc(-c2nc3c(OC4(C)CC4)ncnc3n2Cc2cccc(Cl)c2)c1Cl)C(=O)O (single isomer, unassigned) [Example T443, 5-(2-chloro-3-(9-(3-chlorobenzyl)-6-(1-methylcyclopropoxy)-9H-purin-8-yl)phenoxy)-2-methylpentanoic acid]	6.31 nM
CC1(Oc2ncnc3c2nc(-c2cccc(OCCCOCC(=O)O)c2Cl)n3Cc2cccc(Cl)c2)CC1 [Example T304, 2-(3-(2-chloro-3-(9-(3-chlorobenzyl)-6-(1-methylcyclopropoxy)-9H-purin-8-yl)phenoxy)propoxy)acetic acid]	6.31 nM
Cc1ccnc(Cn2c(-c3ccc(CC(=O)N4CCC4)cc3Cl)nc3c(OC4(C)CC4)ncnc32)c1 [Example T308, 1-(azetidin-1-yl)-2-(3-chloro-4-(6-(1-methylcyclopropoxy)-9-((4-methylpyridin-2-yl)methyl)-9H-purin-8-yl)phenyl)ethan-1-one]	6.31 nM
COc1ccc(Cl)cc1Cn1c(-c2ccc(CCCC(C)C(=O)O)cc2Cl)nc2c(OC3(C)CC3)ncnc21 (racemic) [Example U56, 5-(3-chloro-4-(9-(5-chloro-2-methoxybenzyl)-6-(1-methylcyclopropoxy)-9H-purin-8-yl)phenyl)-2-methylpentanoic acid]	6.31 nM
CC1(Oc2ncnc3c2nc(-c2ccc(OCCOCCOCC(=O)O)cc2Cl)n3Cc2cccc(Cl)c2)CC1 [Example T451, 2-(2-(2-(3-chloro-4-(9-(3-chlorobenzyl)-6-(1-methylcyclopropoxy)-9H-purin-8-yl)phenoxy)ethoxy)ethoxy)acetic acid]	3.98 nM
Cc1ccnc(Cn2c(-c3ccc(CCC(N)=O)cc3Cl)nc3c(OC4(C)CC4)ncnc32)c1 [Example T116, 3-(3-chloro-4-(6-(1-methylcyclopropoxy)-9-((4-methylpyridin-2-yl)methyl)-9H-purin-8-yl)phenyl)propanamide]	7.94 nM
Cc1cnc(Cn2c(-c3ccc(OC4CC5(C4)CN(C)C5)cc3Cl)nc3c(OC4(C)CC4)ncnc32)s1 [Example T359, 2-((8-(2-chloro-4-((2-methyl-2-azaspiro[3.3]heptan-6-yl)oxy)phenyl)-6-(1-methylcyclopropoxy)-9H-purin-9-yl)methyl)-5-methylthiazole]	3.16 nM
C[C@H](CCOc1cccc(-c2nc3c(OC4(C)CC4)ncnc3n2Cc2cccc(Cl)c2)c1Cl)C(=O)O [Example T297, (R)-4-(2-chloro-3-(9-(3-chlorobenzyl)-6-(1-methylcyclopropoxy)-9H-purin-8-yl)phenoxy)-2-methylbutanoic acid]	6.31 nM
C[C@H]1CNCCN1CCOc1ccc(-c2nc3c(OC4(C)CC4)ncnc3n2Cc2cc(Cl)ccn2)c(Cl)c1 [Example T523, (S)-8-(2-chloro-4-(2-(2-methylpiperazin-1-yl)ethoxy)phenyl)-9-((4-chloropyridin-2-yl)methyl)-6-(1-methylcyclopropoxy)-9H-purine]	3.98 nM
CC1(Oc2ncnc3c2nc(-c2ccc(OCCC(=O)O)cc2Cl)n3Cc2cccc(Cl)c2)CC1 [Example T87, 3-(3-chloro-4-(9-(3-chlorobenzyl)-6-(1-methylcyclopropoxy)-9H-purin-8-yl)phenoxy)propanoic acid]	5.01 nM
COc1c(F)cc(Cl)cc1Cn1c(-c2ccc(OCCC(C)C(=O)O)cc2Cl)nc2c(OC3(C)CC3)ncnc21 (racemic) [Example U61, 4-(3-chloro-4-(9-(5-chloro-3-fluoro-2-methoxybenzyl)-6-(1-methylcyclopropoxy)-9H-purin-8-yl)phenoxy)-2-methylbutanoic acid]	6.31 nM
Cc1ccnc(Cn2c(-c3ccc(OCCN)cc3Cl)nc3c(OC4(C)CC4)ncnc32)c1 [Example T69, 2-(3-chloro-4-(6-(1-methylcyclopropoxy)-9-((4-methylpyridin-2-yl)methyl)-9H-purin-8-yl)phenoxy)ethan-1-amine]	10 nM
CC1(Oc2ncnc3c2nc(-c2ccc(CC(N)=O)cc2Cl)n3Cc2nnc(C3CC3)o2)CC1 [Example T21, 2-(3-chloro-4-(9-((5-cyclopropyl-1,3,4-oxadiazol-2-yl)methyl)-6-(1-methylcyclopropoxy)-9H-purin-8-yl)phenyl)acetamide]	501 nM
CC1(Oc2ncnc3c2nc(-c2ccc(OCC[C@@](C)(O)C(=O)O)cc2Cl)n3Cc2cccc(Cl)c2)CC1 [Example T301, (R)-4-(3-chloro-4-(9-(3-chlorobenzyl)-6-(1-methylcyclopropoxy)-9H-purin-8-yl)phenoxy)-2-hydroxy-2-methylbutanoic acid]	6.31 nM
Cc1ccnc(Cn2c(-c3ccc(CC(=O)N4CCNCC4)cc3Cl)nc3c(OC4(C)CC4)ncnc32)c1 [Example T495, 2-(3-chloro-4-(6-(1-methylcyclopropoxy)-9-((4-methylpyridin-2-yl)methyl)-9H-purin-8-yl)phenyl)-1-(piperazin-1-yl)ethan-1-one]	2.51 nM
CC(CCOc1ccc(-c2nc3c(OC4(C)CC4)ncnc3n2Cc2cccc(Br)c2)c(Cl)c1)C(=O)O (racemic) [Example T279, 4-(4-(9-(3-bromobenzyl)-6-(1-methylcyclopropoxy)-9H-purin-8-yl)-3-chlorophenoxy)-2-methylbutanoic acid]	7.94 nM

Structure (SMILES)	IC50
Cc1ccnc(Cn2c(-c3ccc(O[C@@H]4CCN(C(N)=O)C4)cc3Cl)nc3c(OC4(C)CC4)ncnc32)c1 [Example T344, (R)-3-(3-chloro-4-(6-(1-methylcyclopropoxy)-9-((4-methylpyridin-2-yl)methyl)-9H-purin-8-yl)phenoxy)pyrrolidine-1-carboxamide]	12.6 nM
Cc1ccnc(Cn2c(-c3ccc(OCC(=O)N4CCCC4)cc3Cl)nc3c(OC4(C)CC4)ncnc32)c1 [Example T467, 2-(3-chloro-4-(6-(1-methylcyclopropoxy)-9-((4-methylpyridin-2-yl)methyl)-9H-purin-8-yl)phenoxy)-1-(pyrrolidin-1-yl)ethan-1-one]	10 nM
CN1CCCC1CCOc1ccc(-c2nc3c(OC4(C)CC4)ncnc3n2Cc2ccccc2)c(Cl)c1 (racemic) [Example D2, 9-benzyl-8-(2-chloro-4-(2-(1-methylpyrrolidin-2-yl)ethoxy)phenyl)-6-(1-methylcyclopropoxy)-9H-purine]	2 nM
Cc1ccnc(Cn2c(-c3ccc(C(=O)N4CCC[C@H](F)C4)cc3Cl)nc3c(OC4(C)CC4)ncnc32)c1 [Example T418, (S)-(3-chloro-4-(6-(1-methylcyclopropoxy)-9-((4-methylpyridin-2-yl)methyl)-9H-purin-8-yl)phenyl)(3-fluoropiperidin-1-yl)methanone]	50.1 nM
Cc1ccnc(Cn2c(-c3ccc(OCCOCCO)cc3Cl)nc3c(OC4(C)CC4)ncnc32)c1 [Example T233, 2-(2-(3-chloro-4-(6-(1-methylcyclopropoxy)-9-((4-methylpyridin-2-yl)methyl)-9H-purin-8-yl)phenoxy)ethoxy)ethan-1-ol]	3.98 nM
Cc1ccnc(Cn2c(-c3ccc(C(=O)NC4COC4)cc3Cl)nc3c(OC4(C)CC4)ncnc32)c1 [Example T177, 3-chloro-4-(6-(1-methylcyclopropoxy)-9-((4-methylpyridin-2-yl)methyl)-9H-purin-8-yl)-N-(oxetan-3-yl)benzamide]	25.1 nM
Cc1ccnc(Cn2c(-c3ccc(C4CCC(=O)N4)cc3Cl)nc3c(OC4(C)CC4)ncnc32)c1 (single isomer, unassigned) [Example T173, 5-(3-chloro-4-(6-(1-methylcyclopropoxy)-9-((4-methylpyridin-2-yl)methyl)-9H-purin-8-yl)phenyl)pyrrolidin-2-one]	15.8 nM
CC[C@H](CO)NC(=O)COc1ccc(-c2nc3c(OC4(C)CC4)ncnc3n2Cc2cc(C)ccn2)c(Cl)c1 [Example T518, (R)-2-(3-chloro-4-(6-(1-methylcyclopropoxy)-9-((4-methylpyridin-2-yl)methyl)-9H-purin-8-yl)phenoxy)-N-(1-hydroxybutan-2-yl)acetamide]	10 nM
Cc1c(Cn2c(-c3ccc(OCCC(C)C(=O)O)cc3Cl)nc3c(OC4(C)CC4)ncnc32)cccc1C(F)(F)F (single isomer, unassigned) [Example T534, 4-(3-chloro-4-(9-(2-methyl-3-(trifluoromethyl)benzyl)-6-(1-methylcyclopropoxy)-9H-purin-8-yl)phenoxy)-2-methylbutanoic acid]	10 nM
COc1ccc(C)cc1Cn1c(-c2cccc(OCCCOCC(=O)O)c2Cl)nc2c(OC3(C)CC3)ncnc21 [Example U93, 2-(3-(2-chloro-3-(9-(2-methoxy-5-methylbenzyl)-6-(1-methylcyclopropoxy)-9H-purin-8-yl)phenoxy)propoxy)acetic acid]	6.31 nM
CC(C)(COc1ccc(-c2nc3c(OC4(C)CC4)ncnc3n2Cc2cccc(Cl)c2)c(Cl)c1)CC(=O)O [Example T436, 4-(3-chloro-4-(9-(3-chlorobenzyl)-6-(1-methylcyclopropoxy)-9H-purin-8-yl)phenoxy)-3,3-dimethylbutanoic acid]	7.94 nM
CC(CCOc1ccc(-c2nc3c(OC4(C)CC4)ncnc3n2Cc2cccc(C(C)(F)F)c2)c(Cl)c1)C(=O)O (single isomer, unassigned) [Example T545, 4-(3-chloro-4-(9-(3-(1,1-difluoroethyl)benzyl)-6-(1-methylcyclopropoxy)-9H-purin-8-yl)phenoxy)-2-methylbutanoic acid]	6.31 nM
CC(CCCOc1cccc(-c2nc3c(OC4(C)CC4)ncnc3n2Cc2cccc(Cl)c2)c1Cl)C(=O)O (single isomer, unassigned) [Example T444, 5-(2-chloro-3-(9-(3-chlorobenzyl)-6-(1-methylcyclopropoxy)-9H-purin-8-yl)phenoxy)-2-methylpentanoic acid]	5.01 nM
Cc1ccnc(Cn2c(-c3ccc(NC(=O)OCCO)cc3Cl)nc3c(OC4(C)CC4)ncnc32)c1 [Example T123, 2-hydroxyethyl (3-chloro-4-(6-(1-methylcyclopropoxy)-9-((4-methylpyridin-2-yl)methyl)-9H-purin-8-yl)phenyl)carbamate]	6.31 nM
Cc1ccnc(Cn2c(-c3ccc(N4CCCNCC4)cc3Cl)nc3c(OC4(C)CC4)ncnc32)c1 [Example T384, 8-(2-chloro-4-(1,4-diazepan-1-yl)phenyl)-6-(1-methylcyclopropoxy)-9-((4-methylpyridin-2-yl)methyl)-9H-purine]	6.31 nM
